PubChem BioAssay AID488890 (Southern Research Specialized Biocontainment Screening …, 2010)
This is one part of the list. Some of these compounds have results that are not shown, active ones among them. Records with an inconclusive call do not appear. The rule behind the calls is not given here.

Experiment: growth inhibition of non-replicating M. tuberculosis (AID 488890);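 note: plate controls were DMSO cells for no effect and high antibiotic wells for full effect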
Settings: Mycobacterium tuberculosis non-replicating, at 25 µM, stronger effect = higher value

| Compound | inhibition |
| --- | --- |
| Cc1ccc(C(=O)NCC2(N3CCCCC3)CCCCC2)cc1 | 40.9% |
| CCN(CC)CC(C)C(C)OC(=O)C(O)(c1ccccc1)c1ccccc1 (centres undefined) | -0.31% |
| COc1cc(SC)ccc1C(=O)NCC1(N(C)C)CCCCC1 | -3.47% |
| CC(C)N1C(=O)CC2(CCN(CCOC(=O)C(O)(c3ccccc3)c3ccccc3)CC2)C1=O | 8.98% |
| CN1[C@@H]2CC[C@H]1CC(OC(=O)C(O)(c1ccccc1)c1ccccc1)C2 (some centres undefined) | -7.45% |
| O=C(NCC1(N2CCCCC2)CCCCC1)c1cc([N+](=O)[O-])ccc1Cl | 35.6% |
| COc1ccc(C(=O)NCC2(N(C)C)CCCCC2)cc1 | 1.78% |
| CCN1CCCC(OC(=O)C2(O)c3ccccc3C=Cc3ccccc32)C1 (centres undefined) | -1.55% |
| Cc1cc(C(=O)NCC2(N3CCCCC3)CCCCC2)ccc1[N+](=O)[O-] | 7.46% |
| O=C(NCC1(N2CCCCC2)CCCCC1)c1cccc(Br)c1 | 10% |
| C=CCN1CCN(CCOC(=O)C(O)(c2ccccc2)c2ccccc2)CC1 | -2.8% |
| O=C(NCC1(N2CCCCC2)CCCCC1)c1cc(F)c(F)cc1Cl | -6.53% |
| Cc1ccccc1C(=O)NCC1(N2CCCCC2)CCCCC1 | 31.3% |
| CN(C)c1ccc(C(=O)NCC2(N(C)C)CCCCC2)cc1 | -7.01% |
| CN(C)C1CCCC1OC(=O)C(O)(c1ccccc1)c1ccccc1 (centres undefined) | -3.29% |
| O=C(NCC1(N2CCCCC2)CCCCC1)c1cccc(Cl)c1 | -4.89% |
| COc1cccc(C(=O)NCC2(N3CCCCC3)CCCCC2)c1 | 17.3% |
| COc1ccc(Cl)cc1C(=O)NCC1(N(C)C)CCCCC1 | -3.35% |
| COc1cc(C(=O)NCC2(N(C)C)CCCCC2)c([N+](=O)[O-])cc1OC | -1.36% |
| CN(C)C1(CNC(=O)c2ccc(Br)cc2)CCCCC1 | 68.5% |
| CC(C)Oc1ccc(C(=O)NCC2(N(C)C)CCCCC2)cc1 | 0.79% |
| CN(C)c1cccc(C(=O)NCC2(N(C)C)CCCCC2)c1 | -20.4% |
| COc1ccc(Br)c(C(=O)NCC2(N3CCCCC3)CCCCC2)c1 | 48% |
| O=C(OC1CN2CCC1CC2)C(CO)(c1ccccc1)c1ccccc1 (centres undefined) | -9.76% |
